In patent US12091425B2 (AMGEN INC., priority 2016, dated 2024) one finds IC50 data, which are given here for 34 compounds.

The chains behind the UniProt entries cited, without tags or fusion partners. Residues count along the entry.
UniProt Q07820, 171-327 limits assumed: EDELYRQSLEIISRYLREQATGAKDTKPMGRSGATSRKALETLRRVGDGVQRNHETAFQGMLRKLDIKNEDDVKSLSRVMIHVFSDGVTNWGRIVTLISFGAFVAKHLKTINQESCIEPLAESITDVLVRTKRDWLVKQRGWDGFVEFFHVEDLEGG

The first assay addresses Mcl-1/Bim interaction, recombinant human Mcl-1 (171-327) (Homo sapiens, UniProt Q07820). The assay is described as follows: Cell free Mcl-1: Bim Affinity Assay (Mcl-1 HTRF). The format is binding. To be noted: read-out: Mcl-1 HTRF; TR-FRET, 0.1 nM Mcl-1 (171-327), 0.05 nM biotin-Bim (51-76).
Regarding `CC1CC(=O)NC[C@@H]2CC[C@H]2CN2C[C@@]3(CCCc4cc(Cl)ccc43)COc3ccc(cc32)C(=O)NS(=O)(=O)C1C` (stereo partly drawn), the IC50 stood at 5.38 nM.
On the same count and under the same terms, the figure for `CC1CC=C[C@H](O)[C@@H]2CC[C@H]2CN2C[C@@]3(CCCc4cc(Cl)ccc43)COc3ccc(cc32)C(=O)NS(=O)(=O)C1CC1CCO1` (stereo partly drawn) is 0.416 nM; for `CC[C@@H]1CCC(OCCOC)/C=C/[C@@H]2CC[C@H]2CN2C[C@@]3(CCCc4cc(Cl)ccc43)COc3ccc(cc32)C(=O)NS1(=O)=O` (stereo partly drawn) it is 3.58 nM; for `O=C1NS(=O)(=O)C(CN2CCOCC2)CC/C=C/[C@H](O)[C@@H]2CC[C@H]2CN2C[C@@]3(CCCc4cc(Cl)ccc43)COc3ccc1cc32` (stereo partly drawn) it is 0.276 nM.
As for `O=C1NS(=O)(=O)C(CN2CCOCC2)CC/C=C\[C@H](O)[C@@H]2CC[C@H]2CN2C[C@@]3(CCCc4cc(Cl)ccc43)COc3ccc1cc32` (stereo partly drawn), the IC50 was 0.59 nM.
Same read-out and setting: next, `O=C1NS(=O)(=O)C(Cc2ccccn2)CC/C=C/[C@H](O)[C@@H]2CC[C@H]2CN2C[C@@]3(CCCc4cc(Cl)ccc43)COc3ccc1cc32` (stereo partly drawn): 0.566 nM.
Take `O=C1NS(=O)(=O)CCCCCSC2CCC2CN2C[C@@]3(CCCc4cc(Cl)ccc43)COc3ccc1cc32` (stereo partly drawn): the IC50 came to 5.72 nM.
The same measure, in the same setting: the figure for `CC12CCC1CN1C[C@@]3(CCCc4cc(Cl)ccc43)COc3ccc(cc31)C(=O)NS(=O)(=O)CCCCCC2O` (single isomer, unassigned) is 28.7 nM; for `COC(=O)C1CCN(C(=O)C2CCC=C[C@H](O)[C@@H]3CC[C@H]3CN3C[C@@]4(CCCc5cc(Cl)ccc54)COc4ccc(cc43)C(=O)NS2(=O)=O)CC1` (single isomer, unassigned) it is 0.423 nM; for `COC1C2CCCC(C2)S(=O)(=O)NC(=O)c2ccc3c(c2)N(C[C@@H]2CC[C@@H]12)C[C@@]1(CCCc2cc(Cl)ccc21)CO3` (single isomer, unassigned) it is 42.1 nM.
Take `CO[C@H]1/C=C/C(CO)CC(C)S(=O)(=O)NC(=O)c2ccc3c(c2)N(C[C@@H]2CC[C@H]21)C[C@@]1(CCCc2cc(Cl)ccc21)CO3` (single isomer, unassigned): the IC50 was 5.79 nM.
On the same count and under the same terms, next, `C[C@@H]1C/C=C/C(O)C2(C)CCC2CN2C[C@@]3(CCCc4cc(Cl)ccc43)COc3ccc(cc32)C(=O)NS1(=O)=O` (single isomer, unassigned): 8.64 nM; `CC[C@@H]1CC/C=C/C(O)C2(C)CCC2CN2C[C@@]3(CCCc4cc(Cl)ccc43)COc3ccc(cc32)C(=O)NS1(=O)=O` (single isomer, unassigned) [Example 119]: 24.4 nM; `CC[C@@H]1CC/C=C/C(O)C2(C)CCC2CN2C[C@@]3(CCCc4cc(Cl)ccc43)COc3ccc(cc32)C(=O)NS1(=O)=O` (single isomer, unassigned) [Example 120]: 0.927 nM.
In the case of `C[C@@H]1[C@@H](C)CC(N(C)C)CC(O)[C@@H]2CC[C@H]2CN2C[C@@]3(CCCc4cc(Cl)ccc43)COc3ccc(cc32)C(=O)NS1(=O)=O` (single isomer, unassigned) [Example 249], the IC50 was 28.4 nM.
On the same count and under the same terms, the figure for `CC1CC[C@@H](C)S(=O)(=O)NC(=O)c2ccc3c(c2)N(C[C@@H]2CC[C@H]2C(O)C1)C[C@@]1(CCCc2cc(Cl)ccc21)CO3` (single isomer, unassigned) [Example 261] is 33.9 nM.
For the compound `CC1CC[C@@H](C)S(=O)(=O)NC(=O)c2ccc3c(c2)N(C[C@@H]2CC[C@H]2C(O)C1)C[C@@]1(CCCc2cc(Cl)ccc21)CO3` (single isomer, unassigned) [Example 263], the IC50 is 8.42 nM.
In the case of `O=C1NS(=O)(=O)C2COCC2C/C=C/[C@H](O)[C@@H]2CC[C@H]2CN2C[C@@]3(CCCc4cc(Cl)ccc43)COc3ccc1cc32` (single isomer, unassigned) [Example 1028], the IC50 was found to be 3.48 nM.
Turning to `O=C1NS(=O)(=O)C2COCC2C/C=C/[C@H](O)[C@@H]2CC[C@H]2CN2C[C@@]3(CCCc4cc(Cl)ccc43)COc3ccc1cc32` (single isomer, unassigned) [Example 1031], the IC50 came out at 6.58 nM.

Staying with this assay, now noted: read-out: Mcl-1 HTRF; cell free Mcl-1:Bim TR-FRET, recombinant human Mcl-1 (171-327).
Regarding `O=C1NS(=O)(=O)C2CC2CCC[C@H](O)[C@@H]2CC[C@H]2CN2C[C@@]3(CCCc4cc(Cl)ccc43)COc3ccc1cc32` (stereo partly drawn), the IC50 stood at 11.5 nM.
The same measure, in the same setting: the figure for `CC1C(O)C/C=C/C[C@@H]2CC[C@H]2CN2C[C@@]3(CCCc4cc(Cl)ccc43)COc3ccc(cc32)C(=O)NS1(=O)=O` (single isomer, unassigned) is 10.4 nM.
Turning to `CC1COCCC(O)[C@@H]2CC[C@H]2CN2C[C@@]3(CCCc4cc(Cl)ccc43)COc3ccc(cc32)C(=O)NS1(=O)=O` (single isomer, unassigned), the IC50 was 2.75 nM.
The same measure, in the same setting: the figure for `CCC1/C=C/C[C@H](O)[C@@H]2CC[C@H]2CN2C[C@@]3(CCCc4cc(Cl)ccc43)COc3ccc(cc32)C(=O)NS1(=O)=O` (single isomer, unassigned) is 6.55 nM; for `COCC1(C)C/C=C/[C@H](O)[C@@H]2CC[C@H]2CN2C[C@@]3(CCCc4cc(Cl)ccc43)COc3ccc(cc32)C(=O)NS1(=O)=O` (single isomer, unassigned) it is 2.94 nM.
The same measure, in the same setting: the figure for `COC[C@H](CC1[C@@H](C)C/C=C/[C@H](O)[C@@H]2CC[C@H]2CN2C[C@@]3(CCCc4cc(Cl)ccc43)COc3ccc(cc32)C(=O)NS1(=O)=O)OC(=O)c1ccccc1` (single isomer, unassigned) is 2.06 nM.
Regarding `O=C1NS(=O)(=O)C/C=C\C2(O)CCOC(C2)[C@@H]2CC[C@H]2CN2C[C@@]3(CCCc4cc(Cl)ccc43)COc3ccc1cc32` (single isomer, unassigned), the IC50 was determined as 1.99 nM.
As for `O=C1NS(=O)(=O)C/C=C\CC(O)C[C@@H]2CC[C@H]2CN2C[C@@]3(CCCc4cc(Cl)ccc43)COc3ccc1cc32` (single isomer, unassigned), the IC50 was 8.08 nM.
On the same count and under the same terms, the figure for `O=C1NS(=O)(=O)CC2CC2/C=C/[C@H](O)[C@@H]2CC[C@H]2CN2C[C@@]3(CCCc4cc(Cl)ccc43)COc3ccc1cc32` (single isomer, unassigned) [Example 801] is 1.93 nM.

Another assay concerns OPM-2 human multiple myeloma cell line. The assay is described as follows: Cell Viability Assay (OPM-2 10 FBS). To be noted: read-out: OPM-2 10% FBS, OPM-2 cells, 16 h, CellTiter-Glo. The format is cell-based.
Regarding `CC1CC=C[C@H](O)[C@@H]2CC[C@H]2CN2C[C@@]3(CCCc4cc(Cl)ccc43)COc3ccc(cc32)C(=O)NS(=O)(=O)C1CC1CCO1` (stereo partly drawn), the IC50 was found to be 419 nM.
For the compound `CC[C@@H]1CCC(OCCOC)/C=C/[C@@H]2CC[C@H]2CN2C[C@@]3(CCCc4cc(Cl)ccc43)COc3ccc(cc32)C(=O)NS1(=O)=O` (stereo partly drawn), the IC50 worked out at 3870 nM.
Still for that read-out and setting: the figure for `O=C1NS(=O)(=O)C(CN2CCOCC2)CC/C=C/[C@H](O)[C@@H]2CC[C@H]2CN2C[C@@]3(CCCc4cc(Cl)ccc43)COc3ccc1cc32` (stereo partly drawn) is 556 nM; for `O=C1NS(=O)(=O)C(CN2CCOCC2)CC/C=C\[C@H](O)[C@@H]2CC[C@H]2CN2C[C@@]3(CCCc4cc(Cl)ccc43)COc3ccc1cc32` (stereo partly drawn) it is 994 nM.
`O=C1NS(=O)(=O)C(Cc2ccccn2)CC/C=C/[C@H](O)[C@@H]2CC[C@H]2CN2C[C@@]3(CCCc4cc(Cl)ccc43)COc3ccc1cc32` (stereo partly drawn): the IC50 turned out to be 709 nM.
As for `CC1CC(O)[C@@H]2CC[C@H]2CN2C[C@@]3(CCCc4cc(Cl)ccc43)COc3ccc(cc32)C(=O)NS(=O)(=O)[C@H](C)[C@@H](C)C1` (single isomer, unassigned), the IC50 worked out at 3340 nM.
Still for that read-out and setting: next, `O=C1NS(=O)(=O)C(CC2CC2)CCC=C[C@H](O)[C@@H]2CC[C@H]2CN2C[C@@]3(CCCc4cc(Cl)ccc43)COc3ccc1cc32` (single isomer, unassigned) [Example 157]: 480 nM.
In the case of `C/C1=C\C(O)[C@@H]2CC[C@H]2CN2C[C@@]3(CCCc4cc(Cl)ccc43)COc3ccc(cc32)C(=O)NS(=O)(=O)CCC1` (single isomer, unassigned) [Example 239], the IC50 worked out at 3820 nM.
Still for that read-out and setting: the figure for `CC1CC[C@H](C)S(=O)(=O)NC(=O)c2ccc3c(c2)N(C[C@@H]2CC[C@H]2C(O)C1)C[C@@]1(CCCc2cc(Cl)ccc21)CO3` (single isomer, unassigned) [Example 266] is 1070 nM.
Still for that read-out and setting: the figure for `O=C1NS(=O)(=O)CCOC2CCOC(C2)[C@@H]2CC[C@H]2CN2C[C@@]3(CCCc4cc(Cl)ccc43)COc3ccc1cc32` (single isomer, unassigned) [Example 838] is 1220 nM.

Staying with this assay, now noted: read-out: OPM-2 10% FBS, OPM-2 cells, 16 h incubation, CellTiter-Glo.
In the case of `CCC1C(C)C(C)/C=C/[C@H](OC)[C@@H]2CC[C@H]2CN2C[C@@]3(CCCc4cc(Cl)ccc43)COc3ccc(cc32)C(=O)NS1(=O)=O` (single isomer, unassigned), the IC50 came to 628 nM.
